B1: 21-31-N004 (peptide)
peptide: ACMVCHMMEDGTCAGASPAAPSAPP
modifications: Cys 2, 5 and 13 joined by thioether linkages to TBMB scaffold
B2: 21-31-N003 (peptide)
peptide: CMVCHMMEDGTC
modifications: N-terminal acetyl; Cys 1, 4 and 12 joined by thioether linkages to TBMB scaffold
B3: 21-31-04-T01-N001 (peptide)
peptide: EVCWDCFMMEDGTCA
modifications: Cys 3, Cys 6 and Cys 14 joined by thioether linkages to a 1,3,5-tris(methylene)benzene scaffold (from TBMB)
notes: Bicyclic peptide on TBMB scaffold, all thioether
B4: 21-31-07-T01-N001 (peptide)
peptide: SVCRECYMMEDGTCA
modifications: Cys 3, 6 and 14 joined by thioether linkages to TBMB scaffold
B5: 21-31-03-N001 (peptide)
peptide: CEECFRLEDGTCA
modifications: Cys 1, 4 and 12 joined by thioether linkages to TBMB scaffold
B6: 21-31-02-N001 (peptide)
peptide: CEECLTLEDGTCA
modifications: Cys 1, 4 and 12 joined by thioether linkages to TBMB scaffold
B7: 21-31-12-T01-N001 (peptide)
peptide: LCMECYMMEDGTCA
modifications: Cys 2, 5 and 13 joined by thioether linkages to TBMB scaffold

The chains behind the UniProt entries cited, without tags or fusion partners. Residues count along the entry.
UniProt Q04609, 44-750 limits assumed: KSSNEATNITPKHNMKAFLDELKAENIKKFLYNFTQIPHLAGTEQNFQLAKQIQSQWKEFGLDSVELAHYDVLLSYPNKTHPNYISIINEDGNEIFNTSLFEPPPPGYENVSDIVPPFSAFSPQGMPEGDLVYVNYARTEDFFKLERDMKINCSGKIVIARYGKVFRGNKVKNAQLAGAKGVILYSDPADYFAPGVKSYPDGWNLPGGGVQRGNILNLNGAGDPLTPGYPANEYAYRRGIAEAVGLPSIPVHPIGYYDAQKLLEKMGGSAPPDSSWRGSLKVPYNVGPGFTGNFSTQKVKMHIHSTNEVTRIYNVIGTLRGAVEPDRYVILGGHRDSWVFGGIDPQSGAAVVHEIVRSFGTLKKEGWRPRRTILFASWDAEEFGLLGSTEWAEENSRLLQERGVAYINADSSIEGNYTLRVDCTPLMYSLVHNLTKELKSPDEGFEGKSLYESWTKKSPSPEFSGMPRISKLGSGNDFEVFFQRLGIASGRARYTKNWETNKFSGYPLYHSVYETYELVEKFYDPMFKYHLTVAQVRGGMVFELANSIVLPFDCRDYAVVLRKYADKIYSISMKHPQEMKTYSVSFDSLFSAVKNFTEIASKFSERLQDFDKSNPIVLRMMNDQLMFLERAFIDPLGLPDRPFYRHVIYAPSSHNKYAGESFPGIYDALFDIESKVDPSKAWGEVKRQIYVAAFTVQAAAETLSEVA

target: T1, prostate-specific membrane antigen (PSMA) (human, UniProt Q04609 44-750, limits assumed); assay: fluorescence polarization, FP (h)
T1 construct: also called Glutamate carboxypeptidase II; GCPII

Ki [nM] | Binder
95.5 | B1
182 | B2
2.2 | B3
13 | B4
36.5 | B5
28 | B6
7.6 | B7

— patent publication US20220194983A1 (Bicycle, published 2022)
